Measurements: article PMC5912162 (Bioconjugate chemistry, 2010)

Tests used:
[1] = system: human AsPC1 (G12D) pancreatic cancer xenografts; details: mouse, in vivo
[2] = system: human CAPAN2 (G12 V) pancreatic cancer xenografts; details: mouse, in vivo

Cc1cn(CC(=O)N(CCNC(=O)CN(CCNC(=O)CN(CCNC(=O)CN(CCNC(=O)CN(CCNC(=O)CN(CCNC(=O)CN(CCNC(=O)CN(CCNC(=O)CN(CCNC(=O)CN(CCNC(=O)COCCOCCNC(=O)COCCOCCNC(=O)[C@H](CNC(=O)COCCOCCNC(=O)CN2CCN(CC(=O)O)CCN(CC(=O)O)CCN(CC(=O)O)CC2)NC(=O)COCCOCCNC(=O)CN2CCN(CC(=O)O)CCN(CC(=O)O)CCN(CC(=O)O)CC2)C(=O)Cn2cnc3c(=O)[nH]c(N)nc32)C(=O)Cn2ccc(N)nc2=O)C(=O)Cn2ccc(N)nc2=O)C(=O)Cn2cnc3c(N)ncnc32)C(=O)Cn2cc(C)c(=O)[nH]c2=O)C(=O)Cn2ccc(N)nc2=O)C(=O)Cn2cnc3c(N)ncnc32)C(=O)Cn2cnc3c(=O)[nH]c(N)nc32)C(=O)Cn2ccc(N)nc2=O)CC(=O)NCCN(CC(=O)NCCN(CC(=O)NCCOCCOCC(=O)N[C@@H]2CSSC[C@H](C(N)=O)NC(=O)[C@@H](CCCCN)NC(=O)[C@@H](CO)NC2=O)C(=O)Cn2ccc(N)nc2=O)C(=O)Cn2ccc(N)nc2=O)c(=O)[nH]c1=O [WT5195, (DOTA-AEEA)2-PDAP^1-AEEA2-GCCAtCAGCTCC-AEEA-D(Cys-Ser-Lys-Cys)]
K/T (kidney/tumor ratio, tissue distribution) [1]: 142.67 ± 41.47

Cc1cn(CC(=O)N(CCNC(=O)CN(CCNC(=O)CN(CCNC(=O)CN(CCNC(=O)CN(CCNC(=O)CN(CCNC(=O)CN(CCNC(=O)CN(CCNC(=O)CN(CCNC(=O)CN(CCNC(=O)COCCOCCNC(=O)COCCOCCNC(=O)[C@H](CNC(=O)COCCOCCNC(=O)CN2CCN(CC(=O)O)CCN(CC(=O)O)CCN(CC(=O)O)CC2)NC(=O)COCCOCCNC(=O)CN2CCN(CC(=O)O)CCN(CC(=O)O)CCN(CC(=O)O)CC2)C(=O)Cn2cnc3c(=O)[nH]c(N)nc32)C(=O)Cn2ccc(N)nc2=O)C(=O)Cn2ccc(N)nc2=O)C(=O)Cn2cnc3c(N)ncnc32)C(=O)Cn2cnc3c(N)ncnc32)C(=O)Cn2ccc(N)nc2=O)C(=O)Cn2cnc3c(N)ncnc32)C(=O)Cn2cnc3c(=O)[nH]c(N)nc32)C(=O)Cn2ccc(N)nc2=O)CC(=O)NCCN(CC(=O)NCCN(CC(=O)NCCOCCOCC(=O)N[C@@H]2CSSC[C@H](C(N)=O)NC(=O)[C@@H](CCCCN)NC(=O)[C@@H](CO)NC2=O)C(=O)Cn2ccc(N)nc2=O)C(=O)Cn2ccc(N)nc2=O)c(=O)[nH]c1=O [WT5204, (DOTA-AEEA)2-PDAP^1-AEEA2-GCCAaCAGCTCC-AEEA-D(Cys-Ser-Lys-Cys)]
K/T (kidney/tumor ratio, tissue distribution) [1]: 132.2 ± 26.1

Cc1cn(CC(=O)N(CCNC(=O)CN(CCNC(=O)CN(CCNC(=O)CN(CCNC(=O)CN(CCNC(=O)CN(CCNC(=O)CN(CCNC(=O)CN(CCNC(=O)CN(CCNC(=O)CN(CCNC(=O)COCCOCCNC(=O)COCCOCCNC(=O)[C@H](CNC(=O)[C@H](CNC(=O)[C@H](CNC(=O)COCCOCCNC(=O)CN2CCN(CC(=O)O)CCN(CC(=O)O)CCN(CC(=O)O)CC2)NC(=O)COCCOCCNC(=O)CN2CCN(CC(=O)O)CCN(CC(=O)O)CCN(CC(=O)O)CC2)NC(=O)[C@H](CNC(=O)COCCOCCNC(=O)CN2CCN(CC(=O)O)CCN(CC(=O)O)CCN(CC(=O)O)CC2)NC(=O)COCCOCCNC(=O)CN2CCN(CC(=O)O)CCN(CC(=O)O)CCN(CC(=O)O)CC2)NC(=O)[C@H](CNC(=O)[C@H](CNC(=O)COCCOCCNC(=O)CN2CCN(CC(=O)O)CCN(CC(=O)O)CCN(CC(=O)O)CC2)NC(=O)COCCOCCNC(=O)CN2CCN(CC(=O)O)CCN(CC(=O)O)CCN(CC(=O)O)CC2)NC(=O)[C@H](CNC(=O)COCCOCCNC(=O)CN2CCN(CC(=O)O)CCN(CC(=O)O)CCN(CC(=O)O)CC2)NC(=O)COCCOCCNC(=O)CN2CCN(CC(=O)O)CCN(CC(=O)O)CCN(CC(=O)O)CC2)C(=O)Cn2cnc3c(=O)[nH]c(N)nc32)C(=O)Cn2ccc(N)nc2=O)C(=O)Cn2ccc(N)nc2=O)C(=O)Cn2cnc3c(N)ncnc32)C(=O)Cn2cc(C)c(=O)[nH]c2=O)C(=O)Cn2ccc(N)nc2=O)C(=O)Cn2cnc3c(N)ncnc32)C(=O)Cn2cnc3c(=O)[nH]c(N)nc32)C(=O)Cn2ccc(N)nc2=O)CC(=O)NCCN(CC(=O)NCCN(CC(=O)NCCOCCOCC(=O)N[C@@H]2CSSC[C@H](C(N)=O)NC(=O)[C@@H](CCCCN)NC(=O)[C@@H](CO)NC2=O)C(=O)Cn2ccc(N)nc2=O)C(=O)Cn2ccc(N)nc2=O)c(=O)[nH]c1=O [WT8900, (DOTA-AEEA)8-PDAP^3-AEEA2-GCCAtCAGCTCC-AEEA-D(Cys-Ser-Lys-Cys)]
K/T (kidney/tumor ratio, tissue distribution) [1]: 210.8 ± 79.68

Cc1cn(CC(=O)N(CCNC(=O)CN(CCNC(=O)CN(CCNC(=O)CN(CCNC(=O)CN(CCNC(=O)CN(CCNC(=O)CN(CCNC(=O)CN(CCNC(=O)CN(CCNC(=O)CN(CCNC(=O)COCCOCCNC(=O)COCCOCCNC(=O)[C@H](CNC(=O)[C@H](CNC(=O)[C@H](CNC(=O)COCCOCCNC(=O)CN2CCN(CC(=O)O)CCN(CC(=O)O)CCN(CC(=O)O)CC2)NC(=O)COCCOCCNC(=O)CN2CCN(CC(=O)O)CCN(CC(=O)O)CCN(CC(=O)O)CC2)NC(=O)[C@H](CNC(=O)COCCOCCNC(=O)CN2CCN(CC(=O)O)CCN(CC(=O)O)CCN(CC(=O)O)CC2)NC(=O)COCCOCCNC(=O)CN2CCN(CC(=O)O)CCN(CC(=O)O)CCN(CC(=O)O)CC2)NC(=O)[C@H](CNC(=O)[C@H](CNC(=O)COCCOCCNC(=O)CN2CCN(CC(=O)O)CCN(CC(=O)O)CCN(CC(=O)O)CC2)NC(=O)COCCOCCNC(=O)CN2CCN(CC(=O)O)CCN(CC(=O)O)CCN(CC(=O)O)CC2)NC(=O)[C@H](CNC(=O)COCCOCCNC(=O)CN2CCN(CC(=O)O)CCN(CC(=O)O)CCN(CC(=O)O)CC2)NC(=O)COCCOCCNC(=O)CN2CCN(CC(=O)O)CCN(CC(=O)O)CCN(CC(=O)O)CC2)C(=O)Cn2cnc3c(=O)[nH]c(N)nc32)C(=O)Cn2ccc(N)nc2=O)C(=O)Cn2ccc(N)nc2=O)C(=O)Cn2cnc3c(N)ncnc32)C(=O)Cn2cnc3c(N)ncnc32)C(=O)Cn2ccc(N)nc2=O)C(=O)Cn2cnc3c(N)ncnc32)C(=O)Cn2cnc3c(=O)[nH]c(N)nc32)C(=O)Cn2ccc(N)nc2=O)CC(=O)NCCN(CC(=O)NCCN(CC(=O)NCCOCCOCC(=O)N[C@@H]2CSSC[C@H](C(N)=O)NC(=O)[C@@H](CCCCN)NC(=O)[C@@H](CO)NC2=O)C(=O)Cn2ccc(N)nc2=O)C(=O)Cn2ccc(N)nc2=O)c(=O)[nH]c1=O [WT8910, (DOTA-AEEA)8-PDAP^3-AEEA2-GCCAaCAGCTCC-AEEA-D(Cys-Ser-Lys-Cys)]
K/T (kidney/tumor ratio, tissue distribution) [1]: 122.8 ± 35.2
T/M (tumor/muscle ratio, tissue distribution) [1]: 3.72 ± 0.007
Kidney/tumor (K/T) ratio of 111In uptake, with elevated Gd probe dose [2]: 30.8 ± 3.1
